Source: patent US20230338526A1 (BIO THERA SOLUTIONS, published 2023)

Key:
CD20 [1] = molecular target: T1, CD20 (human, UniProt P11836 1-297); test: binding to CD20+ cells; method and cell line not stated
T1 construct: whole, on cells; apoptosis assays used Raji and Wil2-s cells, depletion used healthy human whole blood; also called CD20 antigen; CD20 molecule
T1 sequence (looked up): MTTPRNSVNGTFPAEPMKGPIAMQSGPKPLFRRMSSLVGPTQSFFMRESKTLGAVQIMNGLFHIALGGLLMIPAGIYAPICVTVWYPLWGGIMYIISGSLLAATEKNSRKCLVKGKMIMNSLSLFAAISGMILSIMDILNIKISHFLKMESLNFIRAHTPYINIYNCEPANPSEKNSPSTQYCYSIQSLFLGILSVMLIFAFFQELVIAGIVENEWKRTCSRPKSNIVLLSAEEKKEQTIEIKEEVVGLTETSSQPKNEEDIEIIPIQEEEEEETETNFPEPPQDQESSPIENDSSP

CD20 [2] = molecular target: T1, CD20; test: cell-based or functional assay
CD20 [3] = molecular target: T1, CD20; test: cell-based or functional assay; remark: listed apart in the source

B1: Ofatumumab (antibody, V domains shown)
VH: EVQLVESGGGLVQPGRSLRLSCAASGFTFNDYAMHWVRQAPGKGLEWVSTISWNSGSIGYADSVKGRFTISRDNAKKSLYLQMNSLRAEDTALYYCAKDIQYGNYYYGMDVWGQGTTVTVSS
VL: EIVLTQSPATLSLSPGERATLSCRASQSVSSYLAWYQQKPGQAPRLLIYDASNRATGIPARFSGSGSGTDFTLTISSLEPEDFAVYYCQQRSNWPITFGQGTRLEIK
Binding to CD 20^+ cells (CD20 [1]): 4.16 nM | Percentage of whole blood B-cell depletion in vitro, 10 ng/ml (CD20 [2]): 27% | Percentage of whole blood B-cell depletion in vitro, 50 ng/ml (CD20 [2]): 53.2% | ADCC, PBMC method (CD20 [3]): 0.0261 nM | ADCC, Reporter gene assay method (CD20 [3]): 0.011 nM
